The target of assay [1] is T1, recombinant human ρ1 GABAC receptors (Homo sapiens, UniProt P24046).
T1 construct: expressed in transfected cells; host or cells: Xenopus laevis oocytes (cRNA injection)
In words: Inhibition curves: ginkgolides co-applied with a fixed GABA concentration, two-electrode voltage clamp in Xenopus oocytes. The assay is classed as cell-based. As for the experimental part: Human ρ1 GABAC receptor subunit cDNA was linearized using the restriction enzyme Xba 1 and transcribed using the “mMESSAGE mMACHINE” kit (Ambion Inc., Austin, TX, USA). RNA (10 ng/50 nl) was injected into the cytoplasm of defollicated oocytes using a 15–20 μm diameter tip glass micropipette Nanoject injector (Drummond Scientific Co., Broomali, PA, USA). The oocytes were incubated for 2–7 days at 18 °C in ND96 buffer with a twice-daily change of buffer.
Whole-cell currents from homomeric ρ1 GABAC receptors expressed in oocytes were recorded using two-electrode voltage clamp. Recording microelectrodes were fabricated with a micropipette puller (Narishige Scientific Instrument Lab, Tokyo, Japan) and filled with 3 M KCl solution. Oocytes were clamped at −60 mV and continuously superfused with ND96 buffer. […] […]. Co-applications of ginkgolides were interleaved with test applications of GABA alone to monitor the response throughout the experiment. […] A washout period of 3–5 min was allowed between each application.
Analysis and curve fitting was performed using GraphPad Prism v3.02 (GraphPad Software, San Diego, California, USA). […] […]. […] Unless otherwise noted, parameters were calculated from individual oocytes and then averaged.

Amino acid sequences for entries named in this document (tags omitted). Residues count along the entry.
UniProt P24046, 22-479: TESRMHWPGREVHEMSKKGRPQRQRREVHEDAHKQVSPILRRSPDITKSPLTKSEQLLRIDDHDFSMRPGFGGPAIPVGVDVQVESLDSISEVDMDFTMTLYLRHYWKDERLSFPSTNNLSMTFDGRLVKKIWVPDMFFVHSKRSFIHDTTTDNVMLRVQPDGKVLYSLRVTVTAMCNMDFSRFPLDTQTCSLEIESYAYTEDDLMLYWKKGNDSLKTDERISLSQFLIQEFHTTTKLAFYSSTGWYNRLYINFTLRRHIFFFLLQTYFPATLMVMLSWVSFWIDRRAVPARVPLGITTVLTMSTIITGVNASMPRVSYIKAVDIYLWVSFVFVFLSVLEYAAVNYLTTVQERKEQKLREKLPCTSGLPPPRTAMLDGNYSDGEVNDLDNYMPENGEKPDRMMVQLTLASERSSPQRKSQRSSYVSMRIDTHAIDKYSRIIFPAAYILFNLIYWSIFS

For assay [2], the target named is T1, recombinant human ρ1 GABAC receptors. In words: Fit of kinetic schemes 1-4 to equilibrium GABA concentration–response curves. The assay is classed as cell-based. The source says: The concentration–response curves were fitted with the different mechanisms of inhibition using a least squares non-linear regression in GraphPad Prism.
The mechanism used (Fig. 7, Scheme 1) is that of [Amin and Weiss (1996)], where there are five equivalent agonist binding sites and three sites need to be occupied to activate the receptor, leading to a single open state. […] This assumes five equivalent agonist binding sites but only three are required to be occupied to activate (open) the channel pore. All subsequent kinetic schemes are derivatives of the linear scheme, by incorporating different possible mechanisms for antagonism by ginkgolides. These are drawn from the cyclic mixed-antagonism mechanism described by [Smart and Constanti (1986)]. Scheme 2 and scheme 3 both assume that ginkgolide binds to a single site in the receptor complex. […] For scheme 4, the equilibrium between the fully-liganded closed and open states is removed, which allows for the possibility that the ginkgolide binds to a separate site in the closed state compared to the open state.
Initially, a cyclic allosteric mechanism (Fig. 7, scheme 2) similar to that of [Smart and Constanti (1986)] was fit to the data. This scheme assumes a single binding site on the receptor complex that has an allosteric effect on all rate constants in the reaction mechanism. The scheme was fitted to the data allowing the agonist equilibrium constant, Ka, to be related to the equilibrium constant in the presence of ginkgolide, Ka′ by a constant ratio, R = Ka/Ka′. Similarly, the opening equilibrium constants E and E′ were related by the ratio, S = E/E′. […] As a test of the mechanism, the parameters obtained from the fit were used to predict the inhibition curves (Fig. 8D–F).
This effectively means that ginkgolide is binding at two separate sites. […] Scheme 4 is therefore functionally similar to scheme 2 with E′ having a value close to zero.

Like-named read-outs stand apart in the source and are kept apart here.

One may read the IC50 as the concentration that gives 50% inhibition. Turning to ginkgolide B, the IC50 in assay [1] (0.5 μM GABA) was found to be 0.75 ± 0.07 µM; in assay [1] (1.2 μM GABA), 2.37 ± 0.22 µM; in assay [1] (3.0 μM GABA), 5.72 ± 0.63 µM; in assay [1] (10 μM GABA) it was 129 ± 21.6 µM. Also, the Kd in assay [2] (Scheme 2, calculated, read-out: Kb0) is 0.2 µM; in assay [2] (Scheme 2, calculated, read-out: Kb3) it was 4.1 µM; in assay [2] (Scheme 2, fitted, Ka fixed 3.2 μM, E fixed 11, read-out: Kb4 (equilibrium constant of ginkgolide, open state)), 35.2 ± 5.4 µM; in assay [2] (Scheme 3, calculated, read-out: Kb0), 0.3 µM; in assay [2] (Scheme 3, calculated, read-out: Kb3), 16.7 µM; in assay [2] (Scheme 4, calculated, read-out: Kb0), 0.2 µM. For the same substance, the Kd worked out at 35.2 ± 5.4 µM in assay [2] (Scheme 4, fitted, Ka fixed 3.2 μM, E fixed 11, read-out: Kb4 (equilibrium constant of ginkgolide, open state)) and 4.1 ± 0.5 µM in assay [2] (Scheme 4, printed with ±SE, read-out: Kb3).
